Reference: ChEMBL document CHEMBL5236556, “Development of Cdc2-like Kinase 2 Inhibitors: Achievements and Future Directions” (J Med Chem, 2021)

By UniProt entry, the sequences of proteins in these tests, tags left out. Where a name states a change or a piece, a line headed by the entry shows the natural chain unless it says otherwise.
UniProt P49760, whole entry: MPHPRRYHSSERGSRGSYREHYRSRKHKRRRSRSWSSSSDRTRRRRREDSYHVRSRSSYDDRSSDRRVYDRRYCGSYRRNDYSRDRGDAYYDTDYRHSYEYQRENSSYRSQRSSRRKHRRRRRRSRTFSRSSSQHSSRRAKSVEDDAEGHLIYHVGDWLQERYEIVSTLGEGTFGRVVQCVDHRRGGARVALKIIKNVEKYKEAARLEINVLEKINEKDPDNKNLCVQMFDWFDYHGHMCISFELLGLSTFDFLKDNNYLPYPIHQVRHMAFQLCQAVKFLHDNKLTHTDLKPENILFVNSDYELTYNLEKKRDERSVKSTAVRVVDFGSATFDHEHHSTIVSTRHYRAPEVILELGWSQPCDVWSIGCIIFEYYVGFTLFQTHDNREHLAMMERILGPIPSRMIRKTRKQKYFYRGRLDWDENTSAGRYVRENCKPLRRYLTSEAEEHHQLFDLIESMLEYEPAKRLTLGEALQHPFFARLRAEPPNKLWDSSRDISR
UniProt P49761: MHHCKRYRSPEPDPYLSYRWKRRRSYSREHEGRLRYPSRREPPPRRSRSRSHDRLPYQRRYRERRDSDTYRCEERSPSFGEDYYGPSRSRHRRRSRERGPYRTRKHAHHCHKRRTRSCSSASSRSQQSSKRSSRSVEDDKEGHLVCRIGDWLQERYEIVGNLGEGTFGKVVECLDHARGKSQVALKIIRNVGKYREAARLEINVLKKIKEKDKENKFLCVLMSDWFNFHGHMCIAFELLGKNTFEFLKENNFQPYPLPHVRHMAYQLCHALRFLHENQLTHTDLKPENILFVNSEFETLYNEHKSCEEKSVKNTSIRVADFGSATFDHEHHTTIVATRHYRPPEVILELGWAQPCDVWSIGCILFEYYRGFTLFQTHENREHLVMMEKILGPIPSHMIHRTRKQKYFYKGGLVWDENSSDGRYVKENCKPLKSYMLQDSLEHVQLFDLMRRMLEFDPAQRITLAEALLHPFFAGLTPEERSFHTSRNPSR

What was measured:
[1] = biological target: Dual specificity protein kinase CLK2 (Homo sapiens, UniProt P49760)
[2] = biological target: Dual specificity protein kinase CLK3 (Homo sapiens, UniProt P49761)

IC50 [1] | IC50 [2] | SMILES
720 nM | – | O=C1NC(Nc2ccccc2)=N/C1=C\c1ccc2c(c1)OCO2
– | > 3000 nM | Cn1cc(-c2ccc3occ(-c4cccc(-c5ccncc5)c4)c3n2)cn1
